Laboratory results from patent US8455439B2, “Antidotes for factor Xa inhibitors and methods of using the same in combination with blood coagulating agents” (Portola Pharmaceuticals, Inc., priority 2008, dated 2013).

Amino acid sequences for entries named in this document (tags omitted). Residues count along the entry.
UniProt P00742, 41-179 partner limits assumed: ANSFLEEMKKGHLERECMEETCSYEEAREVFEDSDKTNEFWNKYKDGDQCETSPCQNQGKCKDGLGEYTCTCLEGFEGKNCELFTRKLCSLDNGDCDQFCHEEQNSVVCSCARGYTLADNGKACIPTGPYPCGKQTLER
UniProt P00742, 235-488 limits assumed: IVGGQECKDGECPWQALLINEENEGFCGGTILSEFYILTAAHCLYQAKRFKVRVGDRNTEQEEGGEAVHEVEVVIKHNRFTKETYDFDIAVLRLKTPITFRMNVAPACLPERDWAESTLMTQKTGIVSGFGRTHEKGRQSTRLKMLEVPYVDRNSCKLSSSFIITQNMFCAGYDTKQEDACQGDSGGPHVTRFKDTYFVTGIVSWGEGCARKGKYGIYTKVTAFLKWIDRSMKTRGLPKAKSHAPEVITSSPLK

Assays:
Type in all cases: biochemical
[1] = tested on: thrombin generation in human plasma; assay: Thrombin generation assay in platelet poor or platelet rich plasma; details: 250 nM betrixaban, FIG. 23
Procedure: PRP and PPP were prepared by spinning the anticoagulated blood at ˜100× gravity or 1000× gravity for 20 minutes, respectively, at room temperature. 75-100 microliter (uL) plasma was mixed with CaCl2 and Z-Gly-Gly-Arg-aminomethylcoumarin (Z-GGR-AMC, a thrombin fluorogenic substrate). Tissue factor (Innovin, Dade Behring) was added to initiate the generation of thrombin. For a typical experiment, the reaction mixture contained 15 millimolar (mM) Ca^2+, 100 micromolar (μM) Z-GGR-AMC, and 0.1 nanomolar (nM) tissue factor (TF) (Innovin). Thrombin formation was monitored continuously at 37° C. by a fluorometric plate reader (Molecular Devices) measuring the relative fluorescence units (RFU). Inhibitor and antidote, when present, were pre-incubated with plasma for 20 minutes at room temperature before initiation of thrombin generation.
The results of various experiments using this assay may be found in FIGS. 4, 6, and 9.
PRP and PPP were prepared by spinning the anticoagulated blood at ˜100× gravity or 1000× gravity for 20 minutes, respectively, at room temperature. […] Tissue factor (Innovin, Dade Behring) and CaCl2 were added to initiate the generation of thrombin. For a typical experiment, the reaction mixture contained 15 millimolar (mM) Ca^2+, 100 micromolar (μM) Z-GGR-AMC, and 0.1 nanomolar (nM) tissue factor (TF) (Innovin). Thrombin formation was monitored continuously at 37° C. by a fluorometric plate reader (Molecular Devices) measuring the relative fluorescence units (RFU). When present, the inhibitor and the antidote were pre-incubated with plasma for 15 minutes at room temperature before initiation of thrombin generation. Recombinant VIIa (rVIIa, Novoseven), when present, was added before addition of TF to initiate the reaction.

[2] = tested on: human platelet poor plasma; assay: Clotting prolongation assay, 96-well plate format (OD405 turbidity change, aPTT reagent); details: for correction of the inhibitory effect of enoxaparin: FIG. 18
Procedure: (§1) Two clotting assay formats were used to test the effects of factor Xa inhibitors and the antidote on clotting prolongation. In the first format, a 96-well plate was used to measure multiple samples at the same time. In the second assay format, aPTT was measured with a conventional coagulation instrument (MLA Electra 800 automatic coagulation timer).
In the 96-well plate format method, human platelet poor plasma or platelet rich plasma was prepared similarly as procedures in Example 2. 75-100 μL plasma was recalcified with CaCl2, incubated at 37° C. for 3 minutes and clot formation was initiated by adding tissue factor (Innovin, Dade Behring) or an aPTT reagent (Actin FS, Dade Behring). Change of OD405 was monitored continuously by a plate reader (Molecular Devices). Clotting time was defined as the time (second) when the half maximal value of absorbance (0D405 nm) change was reached. Factor Xa inhibitor and antidote, when present, were pre-incubated with plasma at room temperature for 20 minutes before initiation of the reaction.
In FIG. 18, the effect of r-Antidote to reverse the inhibitory effect of LMWH enoxaparin (Sanofi-Aventis) was tested by turbidity changes in human plasma. Enoxaparin (0-1.25 U/mL) was incubated at 22° C. for 20 min with or without 508 nM r-Antidote. Turbidity changes were measured according to procedures described in Example 3. 508 nM r-Antidote substantially corrected (>75%) the inhibitory effect of 0.3125-1.25 U/mL Enoxaparin.
Turbidity change of human platelet poor plasma (PPP) with an aPTT reagent (Actin FS) was monitored according to procedure described in Example 3.

pooled human plasma [3] = assay: aPTT clotting assay, MLA Electra 800 automatic coagulation timer; details: for Fold Change: aPTT
Procedure: as §1
In FIG. 19, the effect of r-Antidote on reversal of anticoagulation by a low molecular weight heparin (LMWH enoxaparin, Sanofi-Aventis) was tested in a human plasma clotting assay. The effect of 1 antiXa Unit/mL LMWH on aPTT prolongation of plasma and the reversal of inhibitory effect was measured by a MLA Electra 800 Automatic coagulation timer. 100 μL pooled citrate anticoagulated human plasma was mixed with enoxaparin and different concentrations of antidote. Prior to measurement of clotting time, aPTT reagent (Actin FS, Dade Behring) and CaCl2 were added per manufacturer's instructions.

pooled human plasma [4] = assay: Prothrombin time (PT) clotting assay, MLA Electra 800 automatic coagulation timer; details: for correction of anticoagulation: 1.9 μM recombinant antidote; for Fold Change: PT
purified active fXa = purified active fXa (Homo sapiens, UniProt P00742); assay: fXa chromogenic activity (Spectrozyme-fXa): inhibition by fXa inhibitor and reversal by antidote
[5] = 300 nM Betrixaban + 570 nM r-Antidote
[6] = 300 nM Betrixaban + 760 nM r-Antidote
[7] = 300 nM Betrixaban + […] r-Antidote
[8] = 380 nM r-antidote, 400 nM betrixaban (Example 17)
[9] = 400 nM Betrixaban + 380 nM rAntidote (Table 17)
[10] = 400 nM Betrixaban + 570 nM rAntidote
[11] = 400 nM Betrixaban + 760 nM rAntidote (Table 17)
[12] = 400 nM Betrixaban + 1520 nM rAntidote
[13] = 400 nM Betrixaban + […] rAntidote (Table 17)
[14] = 760 nM r-antidote, 400 nM betrixaban (Example 17)
[15] = 380 nM r-Antidote, 1 μM rivaroxaban
[16] = 760 nM r-antidote + 0.55 nM rVIIa, 1 μM rivaroxaban
[17] = 1 μM apixaban + 380 nM rAntidote
[18] = 1 μM apixaban + 760 nM rAntidote
[19] = 1 μM apixaban + 1.52 μM rAntidote
[20] = […] apixaban + 1.52 μM rAntidote
[21] = […] apixaban + 1.90 μM rAntidote

reversal of apixaban (purified active fXa; 186 nM r-Antidote, apixaban): > 70%
correction of inhibition (purified active fXa; 186 nM r-Antidote, betrixaban and rivaroxaban): > 95%
affinity compared with the plasma derived protein (purified active fXa; in the in vitro assays): comparable affinity
B1: r-Antidote: fXa derivative lacking amino acid residues 6-39 of SEQ ID NO. 3, S379A, expressed in CHO cells, linker removed (SEQ ID NO. 13) (protein)
chain: ANSFLFWNKYKDGDQCETSPCQNQGKCKDGLGEYTCTCLEGFEGKNCELFTRKLCSLDNGDCDQFCHEEQNSVVCSCARGYTLADNGKACIPTGPYPCGKQTLERIVGGQECKDGECPWQALLINEENEGFCGGTILSEFYILTAAHCLYQAKRFKVRVGDRNTEQEEGGEAVHEVEVVIKHNRFTKETYDFDIAVLRLKTPITFRMNVAPACLPERDWAESTLMTQKTGIVSGFGRTHEKGRQSTRLKMLEVPYVDRNSCKLSSSFIITQNMFCAGYDTKQEDACQGDAGGPHVTRFKDTYFVTGIVSWGEGCARKGKYGIYTKVTAFLKWIDRSMKTRGLPKAKSHAPEVITSSPLK
thrombin generation activity, combination effect ([1]; r-Antidote + 100 nM rVIIa, at each r-Antidote concentration): further increased thrombin generation activity
reversal of anticoagulant effect of betrixaban, relative thrombin generation activity ([1]; r-Antidote alone): independently reversed the anticoagulant effect
correction of the inhibitory effect of enoxaparin ([2]; 50 nM r-Antidote, 1.25 U/mL enoxaparin): > 75%
reversal of the anticoagulant effect of betrixaban ([2]; 125 nM r-Antidote, 125 nM betrixaban, FIG. 26): substantially reversed
correction of the inhibitory effect of betrixaban, combination ([2]; 170 nM fX + 125 nM r-Antidote, 125 nM betrixaban, FIG. 26): further corrected
correction of the inhibitory effect of enoxaparin ([2]; 508 nM r-Antidote, 0.3125-1.25 U/mL Enoxaparin): > 75%
% Correction of anti-coagulation (pooled human plasma [3]; [5]): 88%
aPTT (pooled human plasma [3]; [5]): 38.3 s
% Correction of anti-coagulation (pooled human plasma [3]; [6]): 88%
aPTT (pooled human plasma [3]; [6]): 38.2 s
% Correction of anti-coagulation (pooled human plasma [3]; [7]): 90%
aPTT (pooled human plasma [3]; [7]): 38.1 s
aPTT (pooled human plasma [3]; 380 nM r-Antidote + 258 nM fIX, 400 nM betrixaban): 33 s
aPTT (pooled human plasma [3]; [8]): 38.6 s
correction of aPTT (pooled human plasma [3]; [8]): 25%
% Correction of anti-coagulation (pooled human plasma [3]; [9]): 61%
aPTT (pooled human plasma [3]; [9]): 47.1 s
% Correction of anti-coagulation (pooled human plasma [3]; [10]): 85%
aPTT (pooled human plasma [3]; [10]): 39.9 s
% Correction of anti-coagulation (pooled human plasma [3]; [11]): 85%
aPTT (pooled human plasma [3]; [11]): 39.9 s
% Correction of anti-coagulation (pooled human plasma [3]; [12]): 86%
aPTT (pooled human plasma [3]; [12]): 39.4 s
% Correction of anti-coagulation (pooled human plasma [3]; [13]): 92%
aPTT (pooled human plasma [3]; [13]): 37.8 s
aPTT (pooled human plasma [3]; 760 nM r-Antidote + 258 nM fIX, 400 nM betrixaban): 26.9 s
aPTT (pooled human plasma [3]; [14]): 31.2 s
correction of aPTT (pooled human plasma [3]; [14]): 40%
aPTT (pooled human plasma [3]; 1520 nM rAntidote alone, no inhibitor): 38.8 s
reversal of the anticoagulant effect, combination (pooled human plasma [3]; […] r-Antidote + 258 nM fIX, 400 nM betrixaban, FIG. 25): complete in-vitro reversal
correction of aPTT (pooled human plasma [3]; […] r-antidote, 400 nM betrixaban (Example 17)): 42%
Fold Change (pooled human plasma [3]; [5]): 1.09
Fold Change (pooled human plasma [3]; [6]): 1.09
Fold Change (pooled human plasma [3]; [7]): 1.08
Fold Change (pooled human plasma [3]; 400 nM Betrixaban + 380 nM rAntidote): 1.34
Fold Change (pooled human plasma [3]; [10]): 1.13
Fold Change (pooled human plasma [3]; 400 nM Betrixaban + 760 nM rAntidote): 1.13
Fold Change (pooled human plasma [3]; [12]): 1.12
Fold Change (pooled human plasma [3]; 400 nM Betrixaban + […] rAntidote): 1.07
Fold Change (pooled human plasma [3]; 1520 nM rAntidote alone): 1.10
PT (pooled human plasma [4]; [15]): 21.5 ± 0.2 s
correction of PT (pooled human plasma [4]; [15]): 14%
effect on PT (pooled human plasma [4]; 380 nM r-Antidote, absence of rivaroxaban, FIG. 24A): slightly reduced the PT
resulting PT (pooled human plasma [4]; 380 nM r-antidote + 2.2 nM rVIIa, 1 μM rivaroxaban (complete correction)): 12 s
reversal of rivaroxaban induced anticoagulation, combination (pooled human plasma [4]; 760 nM r-Antidote + 0.55 nM rVIIa, 1 μM rivaroxaban, listed as r-antidote): close to complete correction
correction of PT (pooled human plasma [4]; 760 nM r-Antidote, 1 μM rivaroxaban): 28%
resulting PT (pooled human plasma [4]; [16]): 12 s
reversal of rivaroxaban induced anticoagulation, combination (pooled human plasma [4]; [16]): great reversion
PT (pooled human plasma [4]; [17]): 15.3 s
PT (pooled human plasma [4]; [18]): 14.9 s
PT (pooled human plasma [4]; [19]): 14.2 s
PT (pooled human plasma [4]; 1 μM apixaban + […] rAntidote): 14.2 s
PT (pooled human plasma [4]; 1.52 μM rAntidote alone, no inhibitor): 14 s
PT (pooled human plasma [4]; 1.90 μM rAntidote alone, no inhibitor): 14.2 s
correction of anticoagulation (pooled human plasma [4]; 1 μM rivaroxaban, FIG. 20): 100%
correction of anticoagulation (pooled human plasma [4]; […] apixaban): 97%
Fold Change (pooled human plasma [4]; [17]): 1.09
Fold Change (pooled human plasma [4]; [18]): 1.06
Fold Change (pooled human plasma [4]; [19]): 1.01
Fold Change (pooled human plasma [4]; 1 μM apixaban + […] rAntidote): 1.01
Fold Change (pooled human plasma [4]; [20]): 1.04
Fold Change (pooled human plasma [4]; [21]): 1.01
PT (pooled human plasma [4]; [20]): 14.6 s
PT (pooled human plasma [4]; [21]): 14.3 s
